Measured values: patent US9938562B2, “Naphthalene derived chromogenic enzyme substrates” (Glycosynth Limited, priority 2013, dated 2018)

Columns and labels:
[1] = system: Bacillus subtilis NCTC 9372; experiment: Agar plate multi-point inoculation, colour; format: cell-based; details: Columbia agar, FAC 500 mg/L, substrate 300 mg/L, 37° C. 18 h in air

DHN-6-sulfonic acid-phosphate trisodium salt
solubility in water / aqueous media (Solubility in water): very soluble
Colour [1]: −

Only a part of the results on these compounds is given; other tests are left out.
